The record followed here is US8802720B2, “Acylamino-substituted fused cyclopentanecarboxylic acid derivatives and their use as pharmaceuticals” (SANOFI, priority 2008, dated 2014).

Protein sequences, listed by entry. Tags and fused reporters are not part of them.
UniProt Q92633, whole entry: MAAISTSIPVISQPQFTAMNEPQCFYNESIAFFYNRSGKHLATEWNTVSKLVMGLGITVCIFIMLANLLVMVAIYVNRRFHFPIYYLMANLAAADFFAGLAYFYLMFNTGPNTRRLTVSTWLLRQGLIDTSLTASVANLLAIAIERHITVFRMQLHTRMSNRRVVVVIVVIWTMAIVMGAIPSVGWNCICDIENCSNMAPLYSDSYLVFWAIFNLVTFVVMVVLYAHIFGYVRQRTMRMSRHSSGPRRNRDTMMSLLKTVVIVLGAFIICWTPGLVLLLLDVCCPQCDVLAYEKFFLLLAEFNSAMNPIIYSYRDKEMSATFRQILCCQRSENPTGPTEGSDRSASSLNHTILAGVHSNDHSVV

Structures are written as SMILES.

The assay addresses human Edg-2 receptor (LPA1 receptor) (Homo sapiens, UniProt Q92633). The assay is described as follows: Edg-2 receptor inhibition by FLIPR calcium fluorescence measurement (LPA-mediated calcium liberation). To be noted: read-out: Inhibitory concentrations IC50 for inhibition of the Edg-2 receptor; CHO cells stably overexpressing human Edg-2 receptor; LPA 18:1 100 nM; fluo-4 fluorescence; triplicate.

As to `COc1ccc(C(=O)NC2(C(=O)O)Cc3ccccc3C2)cc1OCCc1ccc(CCO)cc1`, the IC50 was less than 100 nM.
